By UniProt entry, the sequences of proteins in these tests, tags left out. Residues count along the entry.
UniProt O88871, 41-940: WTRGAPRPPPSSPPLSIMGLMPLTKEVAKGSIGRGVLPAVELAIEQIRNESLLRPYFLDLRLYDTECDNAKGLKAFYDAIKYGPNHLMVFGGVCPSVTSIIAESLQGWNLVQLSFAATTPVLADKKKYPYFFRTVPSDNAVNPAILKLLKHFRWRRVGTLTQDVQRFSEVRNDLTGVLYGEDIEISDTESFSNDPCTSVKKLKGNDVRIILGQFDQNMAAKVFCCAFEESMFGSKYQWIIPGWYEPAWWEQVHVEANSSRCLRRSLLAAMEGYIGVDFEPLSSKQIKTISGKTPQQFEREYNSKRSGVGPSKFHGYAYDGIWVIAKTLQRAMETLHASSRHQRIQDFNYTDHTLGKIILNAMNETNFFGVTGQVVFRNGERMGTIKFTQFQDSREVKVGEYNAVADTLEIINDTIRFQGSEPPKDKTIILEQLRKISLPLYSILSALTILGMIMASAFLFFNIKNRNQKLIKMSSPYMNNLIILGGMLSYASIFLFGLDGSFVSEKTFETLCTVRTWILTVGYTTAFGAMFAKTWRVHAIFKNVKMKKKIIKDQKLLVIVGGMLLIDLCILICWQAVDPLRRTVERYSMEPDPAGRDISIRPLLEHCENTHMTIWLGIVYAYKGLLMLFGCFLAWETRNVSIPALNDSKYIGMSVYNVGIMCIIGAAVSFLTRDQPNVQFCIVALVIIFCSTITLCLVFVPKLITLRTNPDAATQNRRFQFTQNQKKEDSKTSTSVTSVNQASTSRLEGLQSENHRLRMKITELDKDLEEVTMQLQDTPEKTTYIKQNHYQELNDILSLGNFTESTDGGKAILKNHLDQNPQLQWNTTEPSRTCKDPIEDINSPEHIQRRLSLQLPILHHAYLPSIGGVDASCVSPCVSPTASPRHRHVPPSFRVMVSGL
UniProt Q9Z0U4, 17-960: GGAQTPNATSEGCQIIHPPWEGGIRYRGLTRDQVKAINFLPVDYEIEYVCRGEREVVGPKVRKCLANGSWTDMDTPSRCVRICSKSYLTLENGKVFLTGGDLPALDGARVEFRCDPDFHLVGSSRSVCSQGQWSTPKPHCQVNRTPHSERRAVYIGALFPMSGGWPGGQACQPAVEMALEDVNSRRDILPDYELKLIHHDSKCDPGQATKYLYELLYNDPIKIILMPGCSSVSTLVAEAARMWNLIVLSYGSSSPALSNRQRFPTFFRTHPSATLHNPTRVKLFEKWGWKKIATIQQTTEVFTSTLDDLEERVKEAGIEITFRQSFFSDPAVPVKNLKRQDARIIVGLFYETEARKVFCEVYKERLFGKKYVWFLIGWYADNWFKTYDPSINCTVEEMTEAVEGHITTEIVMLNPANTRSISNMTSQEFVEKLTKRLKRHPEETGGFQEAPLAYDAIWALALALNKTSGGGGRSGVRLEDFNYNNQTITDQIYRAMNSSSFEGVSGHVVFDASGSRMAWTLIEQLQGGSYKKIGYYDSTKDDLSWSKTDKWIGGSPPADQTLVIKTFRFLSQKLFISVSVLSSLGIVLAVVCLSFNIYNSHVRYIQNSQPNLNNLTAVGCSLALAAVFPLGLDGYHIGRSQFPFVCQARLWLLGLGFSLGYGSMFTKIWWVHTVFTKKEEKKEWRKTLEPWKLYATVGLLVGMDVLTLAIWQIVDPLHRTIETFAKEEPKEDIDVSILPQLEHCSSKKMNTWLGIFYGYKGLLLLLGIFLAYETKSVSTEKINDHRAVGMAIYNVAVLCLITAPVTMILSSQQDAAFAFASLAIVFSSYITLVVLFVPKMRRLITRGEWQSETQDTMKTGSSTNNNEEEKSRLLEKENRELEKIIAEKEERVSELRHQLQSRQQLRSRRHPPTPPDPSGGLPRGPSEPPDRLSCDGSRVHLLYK

According to patent US10556914B2, “Substituted isoxazolopyridazinones and isothiazolopyridazinones and methods of use” (AbbVie Inc., priority 2015, dated 2020):

Target: GABA-B receptor (Rattus norvegicus (Rat), UniProt O88871+Q9Z0U4)
Assay: [35S]GTPgS Binding Assay (rat brain cortex membranes, native receptor)
Type: biochemical
Conditions: rat cortical membranes; in the presence of 1 μM GABA (EC25); basal binding 0%, maximal binding (1 mM GABA) 100%
Method: Preparation of Rat Brain Membranes for Native Receptor Assays
Membranes from rat brain cortex were prepared as described in detail by Olpe et al. and stored at concentrations of 1.66 mg/mL protein at −80° C. until required. (Olpe, H.-R, et al. Eur J Pharmacol 1990; 187: 27-38).
[^35S]GTPgS Binding Assay
The composition of the assay mixtures [in a final volume of 200 μL in 96-well U-bottom plates (Greiner) was as follows: 50 mM Tris-HCl buffer, pH 7.7, 10 mM MgCl2, 0.2 mM EGTA, 2 mM CaCl2, 100 mM NaCl, 20 μM guanosine 5′-diphosphate (Sigma), 0.3 nM [^35S]GTPgS (1250 Ci/mmol (PerkinElmer)), and the test compounds at increasing concentrations (from 10 nM up to 10 μM), 10 μg of rat cortical membranes, and a concentration of 1 μM GABA, that has been observed in previous experiments to correspond to the EC25, a concentration that gives 25% of the maximal response of GABA. The samples were incubated at room temperature for 60 minutes on a shaker. The incubation was stopped by rapid vacuum filtration over glass-fiber filter plates (UniFilter-96 well, GF/B membrane plates, PerkinElmer) using a 96-well plate harvester (TOMTEK© Harvester). […] Nonspecific binding was measured in the presence of unlabeled 10 μM of GTPgS (Millipore) and without GABA. Basal binding was measured in the absence of 1 μM GABA, and maximal binding was measured in the presence of GABA using 1 mM GABA concentrations. […]

N-(3-{5-[4-fluoro-3-(trifluoromethyl)benzyl]-3-methyl-4-oxo-4,5-dihydro[1,2]oxazolo[4,5-d]pyridazin-7-yl}phenyl)acetamide [Example 41]
EC50: 4.67 µM
